Among the data in patent publication US9353061B2, “3,5,N-trihydroxy-alkanamide and derivatives: method for making same and use thereof” (Academia Sinica, priority 2012, dated 2016) are IC50 values, retold here.

Amino acid sequences for entries named in this document (tags omitted). A change or cut given only in a name is not applied to a line headed by its entry. Residues count along the entry.
UniProt P04035, 426-888: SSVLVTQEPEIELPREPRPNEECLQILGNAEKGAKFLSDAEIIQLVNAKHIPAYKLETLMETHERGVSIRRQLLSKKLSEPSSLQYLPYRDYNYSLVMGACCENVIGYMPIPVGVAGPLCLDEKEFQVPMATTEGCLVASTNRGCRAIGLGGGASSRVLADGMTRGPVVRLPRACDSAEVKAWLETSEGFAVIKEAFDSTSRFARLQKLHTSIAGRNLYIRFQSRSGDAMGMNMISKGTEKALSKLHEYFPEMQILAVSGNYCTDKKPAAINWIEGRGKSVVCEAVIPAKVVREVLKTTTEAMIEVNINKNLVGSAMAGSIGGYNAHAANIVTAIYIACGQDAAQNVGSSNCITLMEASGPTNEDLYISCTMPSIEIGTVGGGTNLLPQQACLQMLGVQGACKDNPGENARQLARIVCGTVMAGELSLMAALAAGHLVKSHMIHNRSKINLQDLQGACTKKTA
UniProt Q9UBN7: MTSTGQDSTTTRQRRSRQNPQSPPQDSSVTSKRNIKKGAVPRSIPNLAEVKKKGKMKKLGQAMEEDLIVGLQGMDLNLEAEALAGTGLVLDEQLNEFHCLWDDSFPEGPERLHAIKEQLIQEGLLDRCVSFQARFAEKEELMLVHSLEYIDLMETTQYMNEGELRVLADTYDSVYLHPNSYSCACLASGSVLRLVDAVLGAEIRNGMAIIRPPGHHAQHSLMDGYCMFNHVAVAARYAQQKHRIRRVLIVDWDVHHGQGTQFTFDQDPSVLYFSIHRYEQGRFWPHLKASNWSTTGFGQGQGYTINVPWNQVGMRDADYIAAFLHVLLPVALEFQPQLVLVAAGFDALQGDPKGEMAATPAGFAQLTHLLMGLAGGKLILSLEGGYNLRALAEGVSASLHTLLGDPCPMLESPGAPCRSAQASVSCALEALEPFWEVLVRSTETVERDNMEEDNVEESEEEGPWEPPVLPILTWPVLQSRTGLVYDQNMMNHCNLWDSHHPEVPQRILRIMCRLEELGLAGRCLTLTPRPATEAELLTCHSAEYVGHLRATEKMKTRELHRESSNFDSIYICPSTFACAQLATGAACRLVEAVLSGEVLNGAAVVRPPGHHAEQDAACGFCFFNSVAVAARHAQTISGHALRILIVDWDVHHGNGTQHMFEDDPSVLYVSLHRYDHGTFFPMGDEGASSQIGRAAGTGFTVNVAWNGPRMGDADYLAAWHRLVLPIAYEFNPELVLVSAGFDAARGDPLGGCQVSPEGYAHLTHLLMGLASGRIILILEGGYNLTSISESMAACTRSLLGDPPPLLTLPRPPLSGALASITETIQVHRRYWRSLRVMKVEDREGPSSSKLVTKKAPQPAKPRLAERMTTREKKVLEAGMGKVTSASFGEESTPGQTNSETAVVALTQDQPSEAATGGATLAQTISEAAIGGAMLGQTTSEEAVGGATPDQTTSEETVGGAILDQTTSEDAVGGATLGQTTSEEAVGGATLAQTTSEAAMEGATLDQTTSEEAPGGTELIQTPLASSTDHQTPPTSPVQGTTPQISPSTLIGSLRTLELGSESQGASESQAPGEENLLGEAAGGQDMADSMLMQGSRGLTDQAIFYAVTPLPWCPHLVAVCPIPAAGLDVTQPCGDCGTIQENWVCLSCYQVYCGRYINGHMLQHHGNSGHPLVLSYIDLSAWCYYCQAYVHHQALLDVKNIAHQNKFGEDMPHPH

As usually defined, the IC50 is the point on the concentration scale where inhibition reaches its midpoint.

The target in one assay is HMG-CoA reductase (HMGR) (Homo sapiens (Human), UniProt P04035). The experiment in a line: HMG-CoA reductase activity assay (NADPH consumption, Sigma kit). The note with it: human recombinant protein. The class given is biochemical. Here is the method: The HMGR activity was performed using HMG-CoA reductase assay kit from Sigma-Aldrich with the human recombinant protein or 100 μg total cell lysates from A549 cells. […] HMGR activity under defined assay conditions, containing NADPH and HMG-CoA substrate in a final volume of 0.2 mL of 100 mM potassium phosphatate buffer (120 mM KCl, 1 mM EDTA, 5 mM DTT, pH 7.4), were initiated in the presence or absence (control) of test compounds dissolved in dimethylsulfoxide (DMSO). The rates of NADPH consumption were monitored every 20 seconds, for up to 10 minutes, by spectrophotometer at 37° C. and 340 nm. The HMGR activity was calculated as a percentage of activity compared with the control group at 5 min. The IC50 values were calculated from software SigmaPlot.
(§1) HDAC fluorometric activity assay was performed using Fluor-de-Lys as the substrate (BIOMOL, Plymouth Meeting, Pa., USA), and HMGR inhibition was evaluated by the […].

Another assay concerns the target HDAC6 (Homo sapiens (Human), UniProt Q9UBN7). The experiment in a line: HDAC fluorimetric activity assay (Fluor-de-Lys). The class given is biochemical. Conditions: recombinant HDAC6. As to the method: The HDAC activity was performed using the HDAC fluorescent activity assay kit (BIOMOL, Plymouth Meeting, Pa., USA) according to the manufacturer's instructions. Briefly, recombinant proteins of HDAC1 or HDAC6 were incubated with test compounds, and HDAC reaction was initiated by addition of Fluor-de-Lys substrate. Samples were incubated for 10 min at room temperature, followed by adding developer to stop the reaction. Fluorescence was measured by fluorometric reader with excitation at 360 nm and emission at 460 nm. The HDAC activity was expressed as arbitrary fluorescence units (AFU). The HDAC activity was calculated as a percentage of activity compared with the control group. The half maximal inhibitory concentration (IC50) values for the test compounds were calculated from software SigmaPlot.
as §1

With `CC(C)c1c(C(=O)Nc2ccccc2)c(-c2ccccc2)c(-c2ccc(F)cc2)n1CC[C@@H](O)C[C@@H](O)CC(=O)O` [Atorvastatin, atorvastatin, reference compound], the IC50 on HMG-CoA reductase (HMGR) came to 11.6 nM; at HDAC6, 14200 nM.
